The values below come from article PMC6117024, “NOP receptor pharmacological profile – A dynamic mass redistribution study” (PLoS ONE, 2018).

Protein sequences, listed by entry. Tags and fused reporters are not part of them. Lines headed by an entry give the natural chain unless they say otherwise; changes in a name come on top.
UniProt P41146: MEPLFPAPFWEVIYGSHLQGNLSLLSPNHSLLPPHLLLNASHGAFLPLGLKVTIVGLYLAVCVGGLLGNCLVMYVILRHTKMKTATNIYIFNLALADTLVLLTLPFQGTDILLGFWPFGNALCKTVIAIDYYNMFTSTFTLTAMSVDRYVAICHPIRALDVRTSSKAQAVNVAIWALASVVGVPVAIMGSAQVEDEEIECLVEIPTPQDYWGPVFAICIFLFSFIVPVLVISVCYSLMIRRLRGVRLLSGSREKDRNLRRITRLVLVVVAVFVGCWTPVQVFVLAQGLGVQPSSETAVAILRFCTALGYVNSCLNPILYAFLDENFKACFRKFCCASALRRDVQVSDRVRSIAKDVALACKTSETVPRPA

The target in the test is human NOP receptor (Homo sapiens, UniProt P41146). Nature of the test: DMR assay in CHONOP cells, agonist effects. The note with it: pEC50, CHONOP cells, DMR peak; 37°C; at least 3 experiments in triplicate; inactive = no DMR response up to 1 μM; parentheses: CL95% (Fig 3).

What is called EC50 is the concentration needed to bring the measured effect to its halfway point.

Regarding `C[C@H](NC(=O)CNC(=O)[C@@H](NC(=O)[C@H](Cc1ccccc1)NC(=O)CNC(=O)CNC(=O)[C@@H](N)Cc1ccccc1)[C@@H](C)O)C(=O)N[C@@H](CCCN=C(N)N)C(=O)N[C@@H](CCCCN)C(=O)N[C@@H](CO)C(=O)N[C@@H](C)C(=O)N[C@@H](CCCN=C(N)N)C(=O)N[C@@H](CCCCN)C(=O)N[C@@H](CCCN=C(N)N)C(=O)N[C@@H](CCCCN)C(=O)N[C@@H](CC(N)=O)C(=O)N[C@@H](CCC(N)=O)C(=O)O` [[Arg^14,Lys^15]N/OFQ], the EC50 was 2.34 nM.
